Values of other authors, collected in patent US5852213A, “Mercaptoketones and mercaptoalcohols and a process for their preparation” (American Cyanamid Company, priority 1997, dated 1998).

Target: human collagenase
Conditions: Journal of Medicinal Chemistry 36, 4030-4039 (1993); read-out: IC50, inhibitor of human collagenase; cited from earlier work

In the case of `CNC(=O)[C@H](Cc1ccc(OC)cc1)NC(=O)C(CC(C)C)C(S)CC(=O)OCc1ccccc1` (stereo partly shown), the IC50 is given as 2 nM.
